This note sets out measurements from US5885592A, “Methods and pharmaceutical compositions for oral delivery of molecular iodine” (priority 1997, dated 1999).

The test system of the series is horseradish peroxidase.

As for horseradish peroxidase, the “decrease in the absorbance at 406 nm” value (1.0 mg/mL in SGF, one hour) was 20%. Further, where the note is “in SGF, end of the hour”, the “reduction of the rate of catalyzed iodine formation” value is recorded as “approximately 33%”.
